The values below come from US20030082641A1 (SYNAPTIC PHARMACEUTICAL, published 2003).

Sequences of proteins named here, by UniProt entry; tags and fusion partners are left off. A change or cut given only in a name is not applied to a line headed by its entry.
UniProt P07480: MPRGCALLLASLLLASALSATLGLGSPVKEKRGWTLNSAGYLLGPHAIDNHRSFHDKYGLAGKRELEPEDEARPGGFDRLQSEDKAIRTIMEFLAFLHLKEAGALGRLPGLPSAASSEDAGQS

For experiment [1], the target named is T1, human GALR3 receptor (human, UniProt O60755 1-368).
T1 sequence: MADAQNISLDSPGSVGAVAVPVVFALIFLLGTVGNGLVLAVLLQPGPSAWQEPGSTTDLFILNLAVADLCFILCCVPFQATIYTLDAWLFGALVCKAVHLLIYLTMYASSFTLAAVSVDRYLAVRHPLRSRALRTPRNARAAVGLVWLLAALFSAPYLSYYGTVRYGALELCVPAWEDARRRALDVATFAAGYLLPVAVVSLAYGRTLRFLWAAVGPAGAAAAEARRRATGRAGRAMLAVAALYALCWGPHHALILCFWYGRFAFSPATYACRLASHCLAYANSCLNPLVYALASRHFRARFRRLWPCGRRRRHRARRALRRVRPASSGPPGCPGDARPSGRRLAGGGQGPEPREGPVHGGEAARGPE
As to the kind of experiment: displacement of porcine 125I-galanin; human GALR3 in LMTK- #8.

Experiment [2] has as its target T1, human GALR3 receptor. As to the kind of experiment: displacement of porcine 125I-galanin; COS-7 membranes, transient.
In experiment [3] the target is T2, rat GALR3 receptor (rat, UniProt O88626 1-370).
T2 construct: also called rGALR3; rGalR3
T2 chain: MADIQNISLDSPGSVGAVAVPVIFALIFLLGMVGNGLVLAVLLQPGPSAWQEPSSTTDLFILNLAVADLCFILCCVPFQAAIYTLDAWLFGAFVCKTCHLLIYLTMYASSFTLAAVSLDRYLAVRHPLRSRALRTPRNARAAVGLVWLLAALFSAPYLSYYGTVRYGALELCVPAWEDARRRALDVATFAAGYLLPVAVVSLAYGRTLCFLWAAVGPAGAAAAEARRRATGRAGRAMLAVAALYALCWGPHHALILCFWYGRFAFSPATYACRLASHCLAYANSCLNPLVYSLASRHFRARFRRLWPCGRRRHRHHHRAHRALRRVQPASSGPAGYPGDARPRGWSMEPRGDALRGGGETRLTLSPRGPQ
As to the kind of experiment: displacement of porcine 125I-galanin; 293-rGalR3-105 membranes, stable.

Experiment [4] has as its target T2, rat GALR3 receptor. As to the kind of experiment: displacement of porcine 125I-galanin; rat GALR3 in 293 #105.
Experiment [5] concerns the target T1, human GALR3 receptor. The experiment is described as follows: cell-based or functional assay.
For experiment [6], the target named is T1, human GALR3 receptor. As to the kind of experiment: cell-based or functional assay. The source holds these as a separate data set.

In general, Ki refers to the equilibrium dissociation constant of an inhibitor or competing ligand from its target. A low value points to tighter binding. In experiment [1], “(3-iodo-L-Tyr9)-(3-iodo-L-Tyr26)-galanin (peptide)” displayed a Ki of 1.43 nM. As for M35 (peptide), the Ki in experiment [2] stood at 19 nM. As for galantide (peptide), the Ki in experiment [3] turned out to be 7.6 nM; in experiment [4], 11.5 nM.

B1: Human galanin (peptide, UniProt P22466 33-62, looked up)
peptide: GWTLNSAGYLLGPHAVGNHRSFSDKNGLTS
Regarding B1, the “EC50, GIRK” value in experiment [5] turned out to be 7340 nM.

B2: porcine galanin (peptide, UniProt P07480 33-61, looked up)
peptide: GWTLNSAGYLLGPHAIDNHRSFHDKYGLA
B2: in experiment [6], the “Oocyte EC50, stimulation of GIRKs” value amounted to 222 nM.
